The test has as its target T1, Nitric oxide synthase, inducible (Mus musculus, UniProt P29477).
T1 sequence (P29477 whole entry): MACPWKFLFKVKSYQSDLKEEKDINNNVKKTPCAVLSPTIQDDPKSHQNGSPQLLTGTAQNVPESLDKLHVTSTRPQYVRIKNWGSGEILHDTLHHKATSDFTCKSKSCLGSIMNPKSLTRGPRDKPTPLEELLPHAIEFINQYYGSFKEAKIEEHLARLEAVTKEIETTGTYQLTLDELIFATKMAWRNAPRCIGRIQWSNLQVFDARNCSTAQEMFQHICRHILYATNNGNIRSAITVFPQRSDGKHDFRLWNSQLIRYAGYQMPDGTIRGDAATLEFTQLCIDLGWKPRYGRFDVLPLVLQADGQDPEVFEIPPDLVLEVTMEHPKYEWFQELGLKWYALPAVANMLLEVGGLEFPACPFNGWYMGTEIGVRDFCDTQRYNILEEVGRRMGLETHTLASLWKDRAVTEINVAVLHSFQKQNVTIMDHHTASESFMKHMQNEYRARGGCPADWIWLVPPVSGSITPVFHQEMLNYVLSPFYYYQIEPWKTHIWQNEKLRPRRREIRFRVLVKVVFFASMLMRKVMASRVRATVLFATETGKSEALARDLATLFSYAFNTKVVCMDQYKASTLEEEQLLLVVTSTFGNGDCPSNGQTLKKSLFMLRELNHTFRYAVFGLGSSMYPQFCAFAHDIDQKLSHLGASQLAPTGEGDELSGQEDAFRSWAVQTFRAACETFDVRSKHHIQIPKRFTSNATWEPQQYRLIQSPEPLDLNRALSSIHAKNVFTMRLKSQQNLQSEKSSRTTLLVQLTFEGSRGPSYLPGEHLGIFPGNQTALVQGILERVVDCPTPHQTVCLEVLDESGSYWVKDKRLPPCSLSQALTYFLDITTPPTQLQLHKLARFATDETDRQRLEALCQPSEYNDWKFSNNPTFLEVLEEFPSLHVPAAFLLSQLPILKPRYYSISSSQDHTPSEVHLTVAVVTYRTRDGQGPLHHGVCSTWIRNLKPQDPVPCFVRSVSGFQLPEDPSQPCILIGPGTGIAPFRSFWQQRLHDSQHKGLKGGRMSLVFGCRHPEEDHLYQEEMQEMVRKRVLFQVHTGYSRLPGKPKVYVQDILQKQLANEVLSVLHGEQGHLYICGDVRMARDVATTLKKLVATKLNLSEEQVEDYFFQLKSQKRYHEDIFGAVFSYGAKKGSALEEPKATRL
Description: Inhibition of iNOS-mediated nitric oxide production in LPS-stimulated mouse BV2 cells measured after 24 hrs of post-stimulation by Griess reaction method. The method, boiled down:
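Murine BV2 microglia in DMEM with 5% FBS were given compound at 1–50 µM and stimulated with LPS 0.5 µg/mL. Nitrite accumulated in the medium was measured by Griess reagent 24 h after stimulation. L-NAME was the positive control. IC50 given as mean ± SEM of three experiments on different days using cells from different passages.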
A general note: Nitrite, measured by Griess reagent, commonly stands in for NO production.

In general, IC50 refers to the concentration needed to halve the response being measured. The low end stands for higher potency, the high end for lower potency.

The structures appear in SMILES notation.

Regarding `COC(=O)[C@@H](N)CCCNC(N)=N[N+](=O)[O-]`, the IC50 was 13.3 µM.

Values taken from BindingDB's records for doi:10.1016/j.ejmech.2011.10.026 (National Cheng Kung University, 2012).
